Measured values taken from ChEMBL document CHEMBL4765404, “Identification of benzofused five-membered sultams, potent dual NOD1/NOD2 antagonists in vitro and in vivo” (Eur J Med Chem, 2020).
Active and inactive are the calls of the source.

By UniProt entry, the sequences of proteins in these tests, tags left out.
UniProt Q9HC29, whole entry: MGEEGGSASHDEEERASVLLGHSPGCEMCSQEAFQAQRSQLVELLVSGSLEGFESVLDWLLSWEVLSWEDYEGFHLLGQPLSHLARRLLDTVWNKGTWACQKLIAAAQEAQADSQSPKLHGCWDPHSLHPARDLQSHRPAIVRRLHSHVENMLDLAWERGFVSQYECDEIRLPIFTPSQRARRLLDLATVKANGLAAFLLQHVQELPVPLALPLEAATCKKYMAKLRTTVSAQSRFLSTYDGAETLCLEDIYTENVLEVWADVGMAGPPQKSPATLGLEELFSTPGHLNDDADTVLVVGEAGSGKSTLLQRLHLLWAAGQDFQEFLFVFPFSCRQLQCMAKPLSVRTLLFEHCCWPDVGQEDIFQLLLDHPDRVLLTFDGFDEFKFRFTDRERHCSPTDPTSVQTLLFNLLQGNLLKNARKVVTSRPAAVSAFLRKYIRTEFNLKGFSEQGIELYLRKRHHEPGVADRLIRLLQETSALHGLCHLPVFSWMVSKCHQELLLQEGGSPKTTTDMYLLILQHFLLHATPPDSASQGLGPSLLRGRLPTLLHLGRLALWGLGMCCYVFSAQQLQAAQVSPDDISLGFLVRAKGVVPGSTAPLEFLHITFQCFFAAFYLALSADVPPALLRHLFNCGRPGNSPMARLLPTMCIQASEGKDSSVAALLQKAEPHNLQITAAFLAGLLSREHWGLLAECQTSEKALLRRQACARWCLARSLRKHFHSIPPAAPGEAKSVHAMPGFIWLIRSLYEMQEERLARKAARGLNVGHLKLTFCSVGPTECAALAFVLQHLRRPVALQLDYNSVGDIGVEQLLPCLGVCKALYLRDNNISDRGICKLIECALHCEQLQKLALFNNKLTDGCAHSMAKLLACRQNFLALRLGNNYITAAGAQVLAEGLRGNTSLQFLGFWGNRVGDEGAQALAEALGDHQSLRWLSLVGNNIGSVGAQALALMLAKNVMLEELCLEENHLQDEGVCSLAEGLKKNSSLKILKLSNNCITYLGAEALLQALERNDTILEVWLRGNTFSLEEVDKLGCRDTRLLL

Assays:
Format in all cases: cell-based
Conditions in all cases: filed as antagonist, dose 1-10 µM
[1] = molecular target: T1, Nucleotide-binding oligomerization domain-containing protein 2 (Homo sapiens, UniProt Q9HC29); test: Inhibition of human NOD2 in human THP-1 cells assessed as inhibition of MDP stimulated IL-6 m-RNA expression measured after 150 mins by Real time quantitative reverse transcriptase PCR method
[2] = molecular target: T1, Nucleotide-binding oligomerization domain-containing protein 2; test: Inhibition of human NOD2 in human THP-1 cells assessed as inhibition of lauroyl-gamma-D-Glu-mDAP stimulated reduction in IkappaBalpha expression measured after 90 mins by western blot method
[3] = molecular target: T1, Nucleotide-binding oligomerization domain-containing protein 2; test: Inhibition of human NOD2 in human THP-1 cells assessed as inhibition of lauroyl-gamma-D-Glu-mDAP stimulated JNK phoshorylation measured after 90 mins by western blot method
[4] = molecular target: T1, Nucleotide-binding oligomerization domain-containing protein 2; test: Inhibition of human NOD2 in human THP-1 cells assessed as inhibition of lauroyl-gamma-D-Glu-mDAP stimulated RIP2 phoshorylation measured after 90 mins by western blot method
[5] = molecular target: T1, Nucleotide-binding oligomerization domain-containing protein 2; test: Inhibition of human NOD2 in human THP-1 cells assessed as inhibition of lauroyl-gamma-D-Glu-mDAP stimulated p38 phosphorylation measured after 90 mins by western blot method
[6] = molecular target: T1, Nucleotide-binding oligomerization domain-containing protein 2; test: Inhibition of human NOD2 in human THP-1 cells assessed as inhibition of lauroyl-gamma-D-Glu-mDAP stimulated ERK phosphorylation measured after 90 mins by western blot method

Measured: inhibition

CCCCOC(=O)CC1c2cccc(C)c2S(=O)(=O)N1C(=O)c1cccc(C(F)(F)F)c1 (stereo unspecified)
active: [1] | [2] | [3] | [4] | [5] | [6]
